The values that follow are results of earlier work, collected in patent publication US9687472B2, “Use of antioxidants as an adjuvant to immune stimulators to augment tumor immunity and prevent toxicity associated with oxidative stress” (BATU BIOLOGICS, priority 2014, dated 2017).

For series [1] the following is noted: after first phase.
For series [2] the following is noted: in vivo, iv.
For series [3] the following is noted: human, in vivo.
For series [4], the system named is factor XII and prekallikrein. To be noted: human, in vivo.
In series [5] the test system is complement system. The conditions noted are these: human, in vivo.
Series [6] deals with granulocytes. To be noted: human, in vivo.
Series [7] deals with metastatic renal cell carcinoma.

Turning to “IL-2: cytokine; first recombinant immunotherapeutic drug approved by the FDA, used as immune stimulator”, the “mean plasma ascorbic acid level” value in series [1] (high-dose interleukin 2 alone) was 0.13 ± 0.08 mg/dL. For the same substance, the “drop of mean plasma ascorbic acid levels” value in series [1] (high-dose interleukin 2 alone (10(5) units/kg every 8 h, 5 days)) was 80%. Moreover, in series [2], the half-life result is “approximately 2 minutes”. The half life entry in series [3] is on record as “approximately an hour”. Also, in series [4], the “factor XII level, corrected for albumin decreases” value is recorded as 80% and the “prekallikrein level, corrected for albumin decreases” value was 50%. In addition, in series [5], the “increase of Ba protein” value is 8.0 fold, the “increase of Bb protein” value is recorded as 5.0 fold, the “increase of plasma C3a levels” value is on record as 15.6 fold and the “increase of plasma C4d concentration” value is listed as 4.8 fold. For the same substance, in series [5], the “increase of plasma SC5b-9” value was 5.0 fold, the “increase of plasma iC3b concentration” value was 2.9 fold, the “increase of surface expression of anti-C3c on CD3 cells” value is given as 6.2 fold and the “increase of surface expression of anti-SC5b-9 on CD3 cells” value is on record as 5.1 fold. In series [6], the “mean peak elastase/alpha 1-antitrypsin (E alpha 1 A)” value is recorded as 212 (SEM=37) ng ml-1 and the mean peak lactoferrin was 534 (SEM=92) ng ml-1. In addition, in series [7] (human, in vivo), the “patients who have to interrupt or stop therapy because of VLS” value is given as 65 % of patients and the “treated patients having lethal outcome (severe VLS)” value was “approximately 1%”. Besides, in series [7] (metastatic renal cell carcinoma patients, meta-analysis), the objective responses was 23 % of patients.
